Source: PubChem
The list is not random: actives were taken first. Their share in the collection is about 0.66%.
Rango-impB inh: Rango-importin beta binding inhibition | 340,000 compounds, 0.031% hits | Rango CFP/YFP FRET sensor + importin beta, 45 min | AID 540263 | Potency, µM (highest dose often 92.2 µM); also: nearly all actives have a fitted effect of over 15% in size
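FRET biosensor Rango (snurportin 1 IBB between N-terminal EYFP and C-terminal Cerulean), 50 nM in PBS/1 mM DTT/0.02% Tween-20/0.1% BSA, preincubated 5 min RT with compound; 0.125 microM importin beta added, 45 min RT, CFP/YFP FRET ratio read.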
gsp agonist: gsp mutant agonism; Potency, µM (titrated, usually from 76.9 µM), most hits filed as activators; gsp mutant cells, cAMP HTRF, 30 min; AID 624287; 340,000 compounds, 0.13% hits; active = well fitted activation curve with a large enough effect; inconclusive = small, poorly fitted or top-dose-only effect, or another doubt; inactive = no such curve, though single readings can be large or run the other way; cell line not stated here;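 also: phosphodiesterase inhibitor Ro 20-1724 added with compounds to block cAMP breakdown; nearly all actives have a fitted effect of over 60% in size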
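Cells stably selected in G418 were plated at 2000/well, grown 16-24 hr, then given compounds in DMSO with the PDE inhibitor […] (300 uM solution added) for 30 min at 37C; cAMP was read by HTRF.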
gsp antagonist: gsp mutant antagonism; gsp-mutant cells, cAMP HTRF, 30 min; Potency, µM (titrated, usually from 76.9 µM), usual class: inhibitors; 340,000 compounds, 0.4% hits; AID 624288; calls by dose curve; cell line not stated here;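 also: intracellular cAMP measured with PDE inhibitor Ro 20-1724 present during compound exposure; nearly all actives have a fitted effect of over 65% in size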
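HTRF cAMP measurement after 30 min RT detection following 30 min, 37C compound treatment alongside […] (added as 300 uM solution) in G418-selected cells seeded at 2000/well and grown 16–24 h.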
Rango dissoc inh: inhibitors of RanGTP-induced Rango-importin beta complex dissociation; AID 540253; Potency, µM (top dose mostly 46.1 µM); 340,000 compounds, 0.071% hits; Biochemical FRET Rango-importin beta, RanGTP-induced dissociation; also: nearly all actives have a fitted effect of over 45% in size
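Rango/importin beta premix (0.1/0.25 uM final), PBS + 1 mM DTT + 0.02% Tween-20 + 0.1% BSA; cpd 5 min RT; FRET pre-read; + RanGTP-RCC1 (0.6 uM Ran, 2 mM GTP, 0.2 uM RCC1); 45 min RT; FRET post-read, ex 430, em 486/530 nm.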
Of the large screens only hits and unclear results are named; the others gave an inactive call; [ ] = dose if it differs, or a comment. Unless noted, calls follow the shape of the full dose curve.

Cc1nnc2sc(SCC(=O)N3CCCCC3)nn2c1=O	gsp agonist 28µM
FC(F)(F)C1=NNC(c2ccc3ccccc3c2)=NN1	none (no result: Rango-impB inh, gsp antagonist, Rango dissoc inh)
C/C=C/c1ccc2c(c1)O[C@H](CN(C)CC1CCOCC1)[C@@H](C)CN([C@H](C)CO)S2(=O)=O	none (no result: Rango-impB inh, gsp antagonist, Rango dissoc inh)
COc1ccc2[nH]c3c(NCCC4=CCCCC4)ncnc3c2c1	gsp antagonist 28µM
COc1ccc2[nH]c3c(NCCCOC(C)C)ncnc3c2c1	none
CCOC(=O)CSc1ccc2nnc(-c3cccnc3)n2n1	gsp agonist 10µM
Cc1csc(=O)n1CCC(=O)OCC(=O)c1c(N)n(CC(C)C)c(=O)n(C)c1=O	none
Cc1csc(=O)n1CCC(=O)OCC(=O)c1c(N)n(C)c(=O)n(C)c1=O	gsp agonist 25µM
Oc1c(C(c2ccccc2)N2CCCCC2)ccc2ccccc12 (stereo not drawn)	none (no result: Rango-impB inh, gsp antagonist, Rango dissoc inh)
O=P1(O)CC2=C(CC=CC2)C1	none (no result: Rango-impB inh, gsp antagonist, Rango dissoc inh)
Cc1noc(C)c1C(=O)N1CCCC(C(=O)c2ccc(Cl)cc2)C1 (stereo not drawn)	none
Cc1cc(C(=O)N2CCCC(C(=O)c3ccc(Oc4ccccc4)cc3)C2)n[nH]1 (stereo not drawn)	gsp antagonist 35µM
Cc1ccc2[nH]nc(C(=O)N3CCCC(C(=O)c4ccc(Cl)cc4)C3)c2c1 (stereo not drawn)	gsp antagonist 14µM
Cc1ncc([N+](=O)[O-])n1CC(=O)Nc1ccccc1Cl	none (no result: Rango-impB inh, gsp antagonist, Rango dissoc inh)
CN(Cc1ccccc1)C(=O)c1cccc(NC(=O)Cc2ccc(NC(=O)C3CCCN(C(=O)C4CCCCC4)C3)cc2)c1 (stereo not drawn)	gsp antagonist inconclusive (no result: gsp agonist)
S=c1[nH]nc(SCc2ccccc2)c2[nH]cnc12	gsp agonist 14µM, gsp antagonist inconclusive
COc1ccc(C#Cc2ccc3c(c2)O[C@@H](CN(C)C(=O)Nc2cccc(OC)c2)[C@H](C)CN([C@@H](C)CO)S3(=O)=O)cc1	none (no result: Rango-impB inh, gsp antagonist, Rango dissoc inh)
C#CCN(C[C@H]1[C@H](OC(=O)Nc2c(C)noc2C)[C@H](OC(=O)Nc2c(C)noc2C)C[C@@H](C(=O)OC)[C@H]1C(=O)OC)S(=O)(=O)c1ccc(C)cc1	none (no result: Rango-impB inh, gsp antagonist, Rango dissoc inh)
Cc1nc2ncnn2c(N2CCCC(C(=O)Nc3ccc4c(c3)CCC4)C2)c1C (stereo not drawn)	gsp agonist inconclusive, gsp antagonist 40µM
CN(CC(=O)Nc1ccc(F)cc1)C(=O)COC(=O)c1cccc(N(C)C)c1	gsp agonist 25µM
CN(CC(=O)Nc1ccc(F)cc1)C(=O)COC(=O)c1ccccc1	none
O=C1/C(=N\S(=O)(=O)c2cccs2)C([n+]2cccc(Cc3ccccc3)c2)=C([O-])c2ccccc21	Rango-impB inh 58µM
O=C(CNC(=O)c1ccccc1)OCc1cc(=O)n2cc(Br)ccc2n1	gsp agonist 5.6µM
O=C(CCSc1nc(-c2ccco2)cc(C(F)(F)F)n1)NCC1CCCO1 (stereo not drawn)	Rango-impB inh inconclusive, Rango dissoc inh 26µM
O=C(CCCSc1nc(-c2ccco2)cc(C(F)(F)F)n1)NCC1CCCO1 (stereo not drawn)	none
COc1ccc(S(=O)(=O)N(C)C[C@@H]2OCCCC[C@H](C)Oc3ccc(NC(=O)Nc4ccc(C(F)(F)F)cc4)cc3C(=O)N([C@H](C)CO)C[C@H]2C)cc1	none (no result: Rango-impB inh, gsp antagonist, Rango dissoc inh)
CN(C)c1ccc(/C=C/c2ccc3c4ccccc4ccc3[n+]2-c2ccccc2)cc1	Rango-impB inh inconclusive, gsp antagonist 40µM
O=C(/C=C/c1ccc(Cl)cc1Cl)NCCSc1ccccc1	gsp agonist inconclusive, gsp antagonist 45µM
O=C(/C=C/c1ccc(Cl)cc1Cl)NCCSCc1ccccc1	none
Brc1ccc(-c2nc3c4ccccc4ccn3c2Cc2ccccc2)cc1	none (no result: Rango-impB inh, gsp antagonist, Rango dissoc inh)
COc1ccc(OCC(=O)Nc2ccc(C(=O)Nc3ccccc3C(=O)O)cc2)cc1	gsp antagonist 40µM
O=C(COc1ccc(Br)cc1)Nc1ccc(C(=O)Nc2ccccc2C(=O)O)cc1	none
O=C1NC(=S)S/C1=C/c1ccc(Oc2cnccn2)cc1	gsp antagonist 11µM
O=C1NC(=O)/C(=C\c2ccc(Oc3cnccn3)cc2)S1	Rango-impB inh inconclusive, gsp antagonist inconclusive
COCCN1C(=O)C(O)=C(C(=O)c2cccs2)C1c1ccccc1 (stereo not drawn)	gsp agonist 3.5µM
CCOc1ccc(-n2c(C)cc(/C=C3/C(=N)N4C(=NC3=O)SN=C4S(C)(=O)=O)c2C)cc1	Rango-impB inh inconclusive, gsp antagonist 32µM, Rango dissoc inh inconclusive
Cc1cc(/C=C2/C(=N)N3C(=NC2=O)SN=C3S(C)(=O)=O)c(C)n1-c1ccc(F)cc1	Rango-impB inh inconclusive, Rango dissoc inh inconclusive
O=C(COC(=O)c1ccc2ccccc2c1)Nc1ncc(C(F)(F)F)cc1Cl	none
O=C(COC(=O)c1c2ccccc2cc2ccccc12)Nc1ncc(C(F)(F)F)cc1Cl	Rango-impB inh inconclusive, gsp agonist 25µM
O=C(Nc1nc(-c2ccccc2)cs1)c1ccc(N2CCOCC2)c([N+](=O)[O-])c1	gsp antagonist 32µM
Cc1ccc(-c2csc(NC(=O)c3cc([N+](=O)[O-])ccc3N3CCOCC3)n2)cc1	none
CCOc1cccc(C(=O)Nc2nc(-c3ccc(S(=O)(=O)N4CCOCC4)cc3)cs2)c1	Rango-impB inh 65µM, gsp antagonist inconclusive
O=C(COc1cccc(Cl)c1)Nc1nc(-c2ccc(S(=O)(=O)N3CCOCC3)cc2)cs1	none
O=C(Nc1nc(-c2ccccc2)cs1)c1ccc2c(=O)n3c(nc2c1)CCCCC3	gsp antagonist 40µM
O=C(Nc1ccccc1Cl)c1ccc2c(=O)n3c(nc2c1)CCC3	none
CNS(=O)(=O)c1ccc(OC)c(-c2nnc3c4ccccc4c(C)nn23)c1	gsp agonist 16µM
Cc1cccc(CC(=O)NCCS(=O)(=O)N2CCN(c3ccccc3)CC2)c1	none (no result: Rango-impB inh, gsp antagonist, Rango dissoc inh)
COc1ccc(-n2cc3c(-c4cccc(Br)c4)nnc(C)c3n2)cc1	gsp antagonist 40µM
CCN(CC)C(=O)C1=C(C)N(Cc2ccc(F)cc2)C(=O)C(CC(=O)NCC2CCCCC2)C1 (stereo not drawn)	none (no result: Rango-impB inh, gsp antagonist, Rango dissoc inh)
C[C@H](CO)N1C[C@H](C)[C@@H](CN(C)C(=O)c2cc(-c3ccccc3)on2)OCc2cn(nn2)CCCC1=O	none (no result: Rango-impB inh, gsp antagonist, Rango dissoc inh)
CSc1nc2ccccc2n1Cc1c(Cl)cccc1Cl	gsp antagonist 40µM
Cc1ccc2[nH]c3c(=O)n(N)c(C)nc3c2c1	none
Cc1ccc2[nH]c3c(=S)nc[nH]c3c2c1	gsp agonist 11µM
CC1CN(C(=O)CSc2nc(N)c(NC(=O)c3ccc(C(F)(F)F)cc3)c(=O)[nH]2)CC(C)O1 (stereo not drawn)	none (no result: Rango-impB inh, gsp antagonist, Rango dissoc inh)
COc1ccc(CCNC(=O)c2cc(-c3ccccc3)c(N3CCOCC3)s2)c(OC)c1OC	gsp antagonist 32µM
CCC(C)NC(=O)c1c(N)n(/N=C/c2cccnc2)c2nc3ccccc3nc12 (stereo not drawn)	Rango-impB inh inconclusive, Rango dissoc inh 3.3µM[inhibitor]
CCC(C)NC(=O)c1c(N)n(/N=C/c2ccccn2)c2nc3ccccc3nc12 (stereo not drawn)	none
O=C(Nc1ccccc1C(=O)Nc1nnc(C(F)(F)F)s1)c1ccccc1Cl	gsp antagonist 32µM
